From patent EP4834348A1
Values after ≈ are worked out from the molar mass of the structure shown.

Test: Solubility test of Compound 1 in various media and solvents (25°C)
Settings: for Solubility: 25°C
Method: The inventors tested the solubility of Compound 1 (API) in various common media. Table 1 Solubility of Compound 1 in various solvents (25°C)

Solubility (Purified water): 22.5 µg/mL (≈ 39.6 µM)
Solubility (pH1.0 hydrochloric acid medium): 1240.7 µg/mL (≈ 2180 µM)
Solubility (pH3.0 citric acid buffer): 2921 µg/mL (≈ 5140 µM)
Solubility (pH4.5 sodium acetate buffer): 45.8 µg/mL (≈ 80.6 µM)
Solubility (pH6.8 phosphate buffer): 19.9 µg/mL (≈ 35 µM)
solubility in water (water at 25°C, background statement): less than 1 mg/mL
Compound: N#CCC1(n2cc(-c3ncnc4[nH]ccc34)c(N)n2)CN(C2CCN(C(=O)c3ccnc(C(F)(F)F)c3F)CC2)C1
